Measured values: US8455543B2, “Platinum complexes and methods for inhibiting tumor cell proliferation” (University of South Florida, priority 2004, dated 2013)
Values joined by “and” are separate entries in the source; they are usually repeats but may differ in a detail not shown here. Equal values may be shown once.

How the values were obtained:
[1] = tested on: Panc-1; test: MTT assay, growth inhibition of human tumor cells; assay type: cell-based; conditions: read-out: IC50 Panc-1, Panc-1 cells, 4 days treatment, several values = separate determinations
[2] = tested on: A549; test: MTT assay, growth inhibition of human tumor cells; assay type: cell-based; conditions: read-out: IC50 A549, 4 days treatment, several values = separate determinations

Compound | IC50 [1] | IC50 [2] [µM]
cis-[Pt^IV(NH3)2Cl2NO2(ONO)] | 15 µM | 28
[NH2][Pt]1([NH2])([O][As](O)O)([N+](=O)[O-])[O]c2ccccc2[O]1 | 73 µM | –
[NH2][Pt]([NH2])([Cl])([Cl])([NH]Nc1cc([N+](=O)[O-])cc([N+](=O)[O-])c1)[N+](=O)[O-] | 3.3 µM and 4.5 µM | –
